# Binding of CDR-mutated scFvs to a peptide of the spike HR2 region

Target peptide (SARS-CoV-2 spike, HR2 region): PDVDLGDISGINAS

Parent scFv Ab-14: VH joined to VL by three GGGGS repeats. Changes lie in the light chain CDRs alone.
VH: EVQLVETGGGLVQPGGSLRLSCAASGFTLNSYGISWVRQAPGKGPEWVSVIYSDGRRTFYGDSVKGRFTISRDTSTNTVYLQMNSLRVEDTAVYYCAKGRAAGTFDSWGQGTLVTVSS
VL: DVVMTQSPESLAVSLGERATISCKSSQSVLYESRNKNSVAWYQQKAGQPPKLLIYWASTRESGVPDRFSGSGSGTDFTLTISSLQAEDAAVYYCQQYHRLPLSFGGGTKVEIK

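Phage display of a naive human antibody library on the peptide gave the parent. This is the validation round: designs drawn from the data on random variants, tested in the same kind of assay. Several design methods are mixed in this list. AlphaSeq pools MATa yeast showing the antibodies with MATalpha yeast showing the peptide. Mating (16 h, 30 °C) was followed by selection of diploids and sequencing of their barcodes. Read counts were normalised to the haploid input and turned into Kd by a linear fit to BCL2-family pairs of known affinity, for each replicate. Each pool was mated in six replicate cultures.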

Each variant is given by its three light chain CDRs, as the data file delimits them; those of the parent are KSSQSVLYESRNKNSVA, WASTRES, QQYHRLPLS.
The Kd shown is the geometric mean over detected replicates; a lower Kd is a better binder.
"not detected" means that the variant was in the library but no mating with the target was seen in any replicate; the authors take this as a sign of poor binding, and no number exists.
The list is sorted by this average, lowest first, undetected variants last.
In the paper, a design with two or fewer of six values counts as a poor binder.
The range of this assay differs from that of the first round, and the authors advise against merging the two.
Background: pairings of all light chain designs with three empty control strains gave a value in 4% of cases (median 430 nM, 5th percentile 38 nM). Values in that range, when seen in few replicates, are hard to tell from nonspecific mating.
The parent sequence was in this pool as ten entries: three were never detected, three once, and four in most replicates, with averages from 2.2 nM to 240 nM.

CDR-L1	CDR-L2	CDR-L3	Kd (apparent)	detected
KLSTSVLYESRNKNNVA	DASTRES	QQYHRLPLS	93 pM	6 of 6
KQSQEVLFESRNKNSVA	DASTRES	QQYHRLPLS	180 pM	6 of 6
KFSQSYLYESRNKNSVA	DASTRES	QQYHRLPLS	280 pM	6 of 6
KMEQGVPYESRNKNSVA	GASVRES	QQYHRLPLS	400 pM	6 of 6
KIDQWKLGESVNKNSVA	DASTRMD	QQYHRLPLS	400 pM	6 of 6
KVPQSMLYESRNANNVA	AASDRES	QQYHRLPLS	460 pM	6 of 6
KLSQSVLYESRNKNAVA	EASTRMS	QQYHRLPLS	470 pM	6 of 6
KMEQGVMYESRNKNSVA	GASVRES	QQYHRLPLS	480 pM	6 of 6
TLQQSWEYESRNKNSVA	NGSQRED	QQYHRLPLS	490 pM	6 of 6
HITDLMYNNNEGMKNIA	DKNISVM	QQYFRLPLS	650 pM	6 of 6
KLPQSAEYQSRNKNSVA	SASTRES	QQYHRLPLS	680 pM	6 of 6
KLSQSVLYESRNFNSVA	HASTRES	QQYHRLPLS	830 pM	6 of 6
KVSQSHLYESRNKNAVA	NASTRES	QQYHRLPLS	910 pM	6 of 6
KFQQMVMQEDRNKNSVA	QASTRMQ	QQYHRLPLS	960 pM	6 of 6
QSSQSGLYESRNKNSVA	GASTRES	QQYHRLPLS	970 pM	6 of 6
KLGDMVHTESRNKNSIA	DMRTRES	QQYHRLPLS	1.0 nM	6 of 6
HISPSFMVESRLKNSVA	QTSTREQ	QQYDRLPLS	1.2 nM	6 of 6
HISPMQAMHYEAKNQVA	DTETKLN	QQYIRLPLS	1.3 nM	6 of 6
KLSFSVLYESRNKNSVA	GASTRES	QQYHRLPLS	1.4 nM	6 of 6
RSSQSVLEESRNKDSVA	NASTRES	QTYHRLPLS	1.6 nM	6 of 6
KLSQSVLYESSNKNSVA	AASTRES	QQYHRLPLS	1.7 nM	6 of 6
HLSDTSMQGSYYRNSVA	QESTRAD	QQYHRLPLS	1.7 nM	6 of 6
KSSQSVLYESRTKNSVA	AASTRES	QQYHRLPLC	1.7 nM	6 of 6
HLGGLMTWESKAKNSVA	QSNTRAE	QQYHRLPLS	1.8 nM	6 of 6
HLTDTVMQGSYYRNSVA	QESTRAD	QQYHRLPLS	1.9 nM	6 of 6
MVTQLAMTGMNSKRSVA	NAETREN	QQYHRLPLI	2.2 nM	6 of 6
KSSQSVLYESRNFNSVA	GASTRES	QQYHRLPLS	2.3 nM	6 of 6
KLYQSQLYESRNKNSVA	QASQREM	QQYHRLPLS	2.4 nM	6 of 6
KLSMSWLYESRNKNSVA	HASTRES	QQYHRLPLS	2.6 nM	6 of 6
KLYQMMGYLSRNKNSIA	DMSRREN	QQYHRLPLS	2.7 nM	6 of 6
KFSQSVLYESRNKNSVA	NASYRES	QQYHRLPLS	3.2 nM	6 of 6
KVSQSVMYESTNKNSVA	EASTRES	QQYHRLPLS	3.5 nM	6 of 6
KISGQYRYEQLSKNSIA	EAQQRLK	QQYHRLPLS	3.6 nM	6 of 6
QISQVMGLSMHQVNNVA	QMTTREE	QQYDRLPLS	4.1 nM	6 of 6

Second part, the sequence after the result:

Kd (apparent)	detected	CDR-L1	CDR-L2	CDR-L3
4.3 nM	6 of 6	KMSQSVLYESRNKNSVA	WASTRES	QQYHRLPNS
4.8 nM	4 of 6	KLMPSWEYESRNKNSVA	EASTRES	QQYHRLPLS
5.7 nM	6 of 6	KMQQSKLMESRNVNSVA	HASLRLE	QQYHRLPLS
6.0 nM	6 of 6	HVAGMMLQMGTQHQNIA	DMAIKCD	QQYQRLPLH
6.3 nM	6 of 6	MLSDTVMQGSYYRNSVA	QESTRAE	QQYHHLPLS
7.5 nM	6 of 6	KLQQSKEYESRWHNSVA	HASVRES	QQYHRLPLS
8.1 nM	6 of 6	KSSQSVLYESENKNNVA	DATTRES	QQYHELPLS
8.3 nM	6 of 6	QIFFNDFQYDIESQNIA	QASLREV	QQYARLPLV
8.4 nM	6 of 6	MFSQMTGLGMKASNSVA	QASMRFN	QQYHRLPLI
8.8 nM	6 of 6	KSDQSVLYESRNKNSFA	QASTRES	QQYHRLPLS
9.0 nM	2 of 6	TISQVMNLLTRHGNNVA	DLEERED	QQYFRLPLS
9.1 nM	6 of 6	NFSQMVLMGSTLKNSVA	HASTREE	QQYHRLPLI
11 nM	6 of 6	KSSQSVLYESRNKNSVA	EASTRES	VQYHRLPLS
12 nM	1 of 6	KSSQSVLYESRNKNSVA	KASTRES	QQYHCLPLS
15 nM	6 of 6	MMTTGLLGENKNSSNIA	SQNIKTA	QQYQRLPFT
16 nM	6 of 6	KLYDMAALTMNNIRNVA	DNDTRVS	QQYHRLPLS
18 nM	6 of 6	KCSQSVLQESRNKNSVA	NASQRER	QQYHRLPLS
19 nM	6 of 6	MVYQAVMMGGVARNSIA	NATMRPD	QQYHRLPLE
20 nM	6 of 6	KLSSYTGHMSVSKNNVA	EMETREE	QQYDRLPLS
20 nM	6 of 6	KLPAATMQESVSKNNVA	ELSTRGS	QQYHRLPLS
24 nM	6 of 6	TLGQVTMQLSRNKNSVA	DASTSED	QQYDRLPLS
27 nM	6 of 6	TISQLYNMGSFAINSVA	QASLRNE	QQYDRLPLM
28 nM	6 of 6	KVSSFMRGLMMRKDSIA	DNETRQS	QQYDRLPLS
33 nM	6 of 6	MFSQLMEYGSRYKNSVA	QASTRED	QQYHWLPLS
49 nM	6 of 6	RIMYEYDKSVDKYNAVA	QAHIRAQ	QFYNRLPLS
67 nM	6 of 6	LLSGSSGYEQRNKNSVA	DASTRES	QAYHRLPLS
79 nM	6 of 6	QLDHQLQYDDANKQAVA	EMTEVTT	QQYHRLPLE
300 nM	5 of 6	KSSQSVSYESTNKNSVA	WASERES	QAYHRLPLS
350 nM	4 of 6	IVSQLMLWGLHAKQSIA	EAVTRLN	QQYDRLPLF
not detected	0 of 6	KMNMAVSQDLMDEQSVA	DHMTAVT	QQYGRLPLS
not detected	0 of 6	KSSQSVEPESRNKNSVA	WASTRES	QQYHRLPLS
not detected	0 of 6	KLMGNIEYGATRQYNIA	EERMVGA	QQYFHLPLI
not detected	0 of 6	QFDLFENYQGMQNASIA	GETNRHT	QQYQKLPLS
not detected	0 of 6	KSSQSVIYASRNKNSVA	WASTRER	QQYHRLPLS

The 10 strongest on average among those seen in every replicate, once more:

CDR-L1	CDR-L2	CDR-L3	Kd (apparent)	detected
KLSTSVLYESRNKNNVA	DASTRES	QQYHRLPLS	93 pM	6 of 6
KQSQEVLFESRNKNSVA	DASTRES	QQYHRLPLS	180 pM	6 of 6
KFSQSYLYESRNKNSVA	DASTRES	QQYHRLPLS	280 pM	6 of 6
KMEQGVPYESRNKNSVA	GASVRES	QQYHRLPLS	400 pM	6 of 6
KIDQWKLGESVNKNSVA	DASTRMD	QQYHRLPLS	400 pM	6 of 6
KVPQSMLYESRNANNVA	AASDRES	QQYHRLPLS	460 pM	6 of 6
KLSQSVLYESRNKNAVA	EASTRMS	QQYHRLPLS	470 pM	6 of 6
KMEQGVMYESRNKNSVA	GASVRES	QQYHRLPLS	480 pM	6 of 6
TLQQSWEYESRNKNSVA	NGSQRED	QQYHRLPLS	490 pM	6 of 6
HITDLMYNNNEGMKNIA	DKNISVM	QQYFRLPLS	650 pM	6 of 6

From the AlphaSeq antibody data of Li et al. 2023 (doi:10.1038/s41467-023-39022-2), copy in the FLAb collection.